{
  "source": "patent US10166294B2",
  "about": "“Multifunctional forms of polyoxazoline copolymers and drug compositions comprising the same” (priority 2008, dated 2019)",
  "key": {"[1]": {"tested_on": "oropharyngeal carcinoma cancer cells (KB)", "experimental": "(§1) Female athymic (Ncr:Nu) mice were implanted subcutaneously with KB tumor fragments and the tumors were allowed to reach a weight range of 160 to 190 mg. […] The control group received normal saline. The animals were weighed and the tumors measured twice weekly after administration of the first drug injection."}, "[2]": {"tested_on": "human colorectal cancer cells (HT-29)", "experimental": "as §1, with “HT-29” for “KB”, “162” for “160”, “188” for “190”"}, "[3]": {"tested_on": "platinum resistant ovarian cancer cells (A2780/DDPt)", "experimental": "Female athymic (Ncr:Nu) mice were implanted subcutaneously with A2780/DDPt tumor fragments and the tumors were allowed to reach a weight range of 163 to 189 mg. […] One group of animals was treated with cisplatin at a dose of 8 mg/kg. The control group received normal saline. The animals were weighed and the tumors measured twice weekly after administration of the first drug injection."}, "[4]": {"conditions": "40, 60 or 90 mg/kg i.v. every fourth day x3"}, "[5]": {"conditions": "all doses (40, 60, 90 mg/kg i.v.)"}},
  "data": [
    {"substance": "H-(Irino.HCl)10(EOZ)190-T-Folate [Folate-POZ-irinotecan]", "values": [
      {"measurement": "Maximum loss in body weight", "setting": "[1]; mouse, in vivo", "result": 2, "unit": "%"}
    ]},
    {"substance": "H-(Irino.HCl)10(EOZ)200-T-PA [POZ-irinotecan]", "values": [
      {"measurement": "Maximum loss in body weight", "setting": "[2]; [4]", "result": 2, "unit": "%"},
      {"measurement": "Tolerability", "setting": "[2]; [5]", "result": "well tolerated"},
      {"measurement": "Maximum loss in body weight", "setting": "[3]; [4]", "result": 2, "unit": "%"},
      {"measurement": "Tolerability", "setting": "[3]; [5]", "result": "well tolerated"},
      {"measurement": "Tolerability", "setting": "[1]; [5]", "result": "well tolerated"}
    ]}
  ]
}
